This note sets out measurements from BindingDB's records for doi:10.1038/nchembio.1930 (Albert Einstein College of Medicine, 2015).

Protein sequences, listed by entry. Tags and fused reporters are not part of them. Residues count along the entry.
UniProt O75874, whole entry: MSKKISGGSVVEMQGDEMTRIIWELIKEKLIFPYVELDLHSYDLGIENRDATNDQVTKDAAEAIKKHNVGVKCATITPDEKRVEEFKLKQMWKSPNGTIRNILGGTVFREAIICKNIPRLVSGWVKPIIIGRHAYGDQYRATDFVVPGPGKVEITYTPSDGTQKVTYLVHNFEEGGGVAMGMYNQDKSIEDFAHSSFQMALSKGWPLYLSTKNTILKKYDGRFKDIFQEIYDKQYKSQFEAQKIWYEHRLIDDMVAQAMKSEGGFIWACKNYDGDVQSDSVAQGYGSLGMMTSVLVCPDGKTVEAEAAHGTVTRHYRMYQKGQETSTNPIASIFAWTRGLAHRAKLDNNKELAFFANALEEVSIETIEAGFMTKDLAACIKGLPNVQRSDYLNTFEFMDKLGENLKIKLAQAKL
UniProt O75874, 2-414 R132H limits assumed: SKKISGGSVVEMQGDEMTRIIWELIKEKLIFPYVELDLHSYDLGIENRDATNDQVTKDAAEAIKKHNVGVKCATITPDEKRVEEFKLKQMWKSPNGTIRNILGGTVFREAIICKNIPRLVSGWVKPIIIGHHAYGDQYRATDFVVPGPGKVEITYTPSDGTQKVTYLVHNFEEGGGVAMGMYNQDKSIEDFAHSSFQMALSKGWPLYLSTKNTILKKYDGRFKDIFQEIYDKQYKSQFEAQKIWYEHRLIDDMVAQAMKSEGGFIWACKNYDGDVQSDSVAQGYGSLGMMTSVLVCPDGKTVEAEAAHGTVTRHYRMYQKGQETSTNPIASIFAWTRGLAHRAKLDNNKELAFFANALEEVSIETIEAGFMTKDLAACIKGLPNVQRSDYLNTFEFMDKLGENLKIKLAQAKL
UniProt O75874, 2-414 R132G limits assumed: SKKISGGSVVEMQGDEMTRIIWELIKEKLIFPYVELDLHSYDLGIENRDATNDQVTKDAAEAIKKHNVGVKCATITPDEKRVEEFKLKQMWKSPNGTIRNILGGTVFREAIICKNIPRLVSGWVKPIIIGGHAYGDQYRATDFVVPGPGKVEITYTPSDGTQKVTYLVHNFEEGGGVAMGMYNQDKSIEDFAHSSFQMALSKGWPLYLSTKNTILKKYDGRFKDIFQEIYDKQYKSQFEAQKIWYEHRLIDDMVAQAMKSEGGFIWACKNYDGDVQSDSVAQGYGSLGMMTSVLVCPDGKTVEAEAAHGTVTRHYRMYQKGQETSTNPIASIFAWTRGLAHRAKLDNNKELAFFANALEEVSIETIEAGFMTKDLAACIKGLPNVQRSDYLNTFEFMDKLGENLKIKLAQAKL
UniProt O75874, 2-414 R132C limits assumed: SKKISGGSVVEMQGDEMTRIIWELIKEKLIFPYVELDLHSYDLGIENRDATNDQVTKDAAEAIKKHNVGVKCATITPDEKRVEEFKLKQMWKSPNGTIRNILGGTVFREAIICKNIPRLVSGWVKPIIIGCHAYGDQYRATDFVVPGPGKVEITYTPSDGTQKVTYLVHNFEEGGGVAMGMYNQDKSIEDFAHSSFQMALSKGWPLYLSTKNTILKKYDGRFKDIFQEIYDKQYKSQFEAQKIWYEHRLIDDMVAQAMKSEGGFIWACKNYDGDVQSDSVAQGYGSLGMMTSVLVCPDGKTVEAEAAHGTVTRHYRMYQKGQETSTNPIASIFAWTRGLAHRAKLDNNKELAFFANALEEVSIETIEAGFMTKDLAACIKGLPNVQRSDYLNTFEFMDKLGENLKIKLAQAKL

Holding throughout (conditions): 25 °C
Assay [1] deals with Isocitrate dehydrogenase [NADP] cytoplasmic (Homo sapiens, UniProt O75874). As to the kind of experiment: Diaphorase/Resazurin Coupled Assay. On the procedure:
For WT IDH1 and IDH2, reactions were conducted at room temperature in 384-well Greiner black microtiter plates in a total volume of 10 μL of assay buffer. Final compound concentrations were typically varied from 5 to 100,000 nM; the isocitrate concentration was fixed at 10 μM, the NADP+ concentration was fixed at 5 μM, and WT IDH1 and IDH2 were fixed at 0.1 nM. Reactions were conducted in duplicate and run kinetically. After each addition, plates were centrifuged for 60 s to ensure complete mixing of reagents.
A general note: Alamar Blue is a resazurin reagent that responds to reducing activity.

The target in assay [2] is Isocitrate dehydrogenase [NADP] cytoplasmic [R132H] (Homo sapiens, UniProt O75874, R132H). The assay is described as follows: RapidFire-MS/MS and NADPH Assays. As for the experimental part:
(§1) RapidFire-MS/MS measurements of mutant IDH1 and IDH2 reactions were conducted at room temperature in 384-well Greiner polypropylene microtiter plates in a total volume of 20 μL of assay buffer. Final compound concentrations were typically varied from 0.5 to 100,000 nM, though in the case of tight-binding inhibition a range of 0.4 nM to 2 μM was used with a 1.5-fold dilution scheme. The αKG concentration was fixed at 500 μM, the NADPH concentration was fixed at 50 μM, and mutant IDH1 and IDH2 were fixed at 15 nM. Reactions were conducted in duplicate and quenched with final concentrations of 100 mM EDTA. After each addition plates were centrifuged for 60 s to ensure complete mixing of reagents. Endpoint data was obtained after 2 h for R132C IDH1, R132G IDH1, R140Q IDH2 and R172S IDH2 and after 4 h for R132H IDH1. For the RapidFire-MS/MS analysis, a 0.5 μL aliquot of each well was diluted 200-fold into a separate analysis plate containing 100 μL of a f

The target of assay [3] is Isocitrate dehydrogenase [NADP] cytoplasmic [R132G] (Homo sapiens, UniProt O75874, R132G). The assay is described as follows: RapidFire-MS/MS and NADPH Assays. As for the experimental part:
as §1

Assay [4] has as its target Isocitrate dehydrogenase [NADP] cytoplasmic [R132C] (Homo sapiens, UniProt O75874, R132C). As to the kind of experiment: RapidFire-MS/MS and NADPH Assays. On the procedure: as §1

The term IC50 denotes the concentration that gives 50% inhibition. Take `C[C@H](O)c1cccc(NC(=O)c2nn(Cc3ccc(F)cc3)c3c2CN(C(=O)c2ccc[nH]2)C[C@H]3C)c1` [GSK321]: the IC50 came to 46 nM in assay [1], 4.6 nM in assay [2], 2.9 nM in assay [3] and 3.8 nM in assay [4].
